Measured values taken from ChEMBL document CHEMBL1125885, “Dopamine autoreceptor agonists as potential antipsychotics. 3.6-Propyl-4,5,5a,6,7,8-hexahydrothiazolo[4,5-f]quinolin-2-amine” (J Med Chem, 1991).

Assay: It is the ratio of ED50 for stimulation of locomotor activity to that of inhibition of locomotor activity
Format: functional

CCCN1CCC=C2c3nc(N)sc3CC[C@@H]21 (stereo in doubt; (-)-6)
Ratio: > 12

CCCN1CCC=C2c3nc(N)sc3CCC21 (racemic)
Ratio: 16.1

CCCN1CCC=C2c3nc(N)sc3CC[C@@H]21 (stereo in doubt; (+)-6)
Ratio: 22.6
